From PubChem BioAssay AID485360 (National Center for Advancing Translational Sciences (NCATS), 2010)
The entries are a selection whose mix differs from that of the whole data set. Some results for these compounds are left out of this collection, so the calls shown say nothing about other tests. Inconclusive results are not listed. Calls of active or inactive are those of the source. Calls follow the shape of the dose curve; as a rule, active = well fitted inhibition curve with a large enough effect; inconclusive = small, poorly fitted or top-dose-only effect; inactive = no such curve, though single readings can be large or run the other way.
% is scaled to controls: 0 for no effect and ±100 for the full control effect.
Also: nearly all actives have a fitted effect of over 60% in size.

By UniProt entry, the sequences of proteins in these tests, tags left out.
UniProt Q9Y468, whole entry: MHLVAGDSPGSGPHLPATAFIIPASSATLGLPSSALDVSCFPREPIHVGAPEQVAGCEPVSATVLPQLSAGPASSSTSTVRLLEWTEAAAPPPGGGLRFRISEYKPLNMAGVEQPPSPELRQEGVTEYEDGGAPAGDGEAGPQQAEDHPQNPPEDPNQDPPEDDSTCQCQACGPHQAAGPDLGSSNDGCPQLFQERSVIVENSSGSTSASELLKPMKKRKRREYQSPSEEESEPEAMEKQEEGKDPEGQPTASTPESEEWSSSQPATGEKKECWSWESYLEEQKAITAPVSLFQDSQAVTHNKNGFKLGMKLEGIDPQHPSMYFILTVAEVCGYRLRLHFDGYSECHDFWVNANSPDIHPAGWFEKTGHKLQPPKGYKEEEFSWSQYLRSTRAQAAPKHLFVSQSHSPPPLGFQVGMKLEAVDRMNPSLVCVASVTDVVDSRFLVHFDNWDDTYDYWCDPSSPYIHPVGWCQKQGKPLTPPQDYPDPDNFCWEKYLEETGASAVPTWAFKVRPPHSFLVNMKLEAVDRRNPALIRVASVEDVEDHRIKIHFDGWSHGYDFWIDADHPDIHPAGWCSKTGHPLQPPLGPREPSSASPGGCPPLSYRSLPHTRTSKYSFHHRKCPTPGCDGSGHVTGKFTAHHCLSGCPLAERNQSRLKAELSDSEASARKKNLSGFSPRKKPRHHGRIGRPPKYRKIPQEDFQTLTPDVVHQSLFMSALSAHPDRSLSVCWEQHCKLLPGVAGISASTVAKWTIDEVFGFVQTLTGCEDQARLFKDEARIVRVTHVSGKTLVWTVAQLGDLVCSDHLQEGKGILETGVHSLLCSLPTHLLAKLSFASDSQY

These molecules were tested against Lethal(3)malignant brain tumor-like protein 1 (Homo sapiens) (UniProt Q9Y468) (assay: qHTS Assay for the Inhibitors of L3MBTL1). Settings: AlphaScreen L3MBTL1–H3K9me1 peptide binding; at 57.1 µM (top of the series).
For `O=C(OC1CN2CCC1CC2)C(CO)(c1ccccc1)c1ccccc1` (stereo not given), the activity, negative = inhibition was inactive: 2.03%.
`COc1ccc(Br)c(C(=O)NCC2(N3CCCCC3)CCCCC2)c1` was tested, and the activity, negative = inhibition was inactive: -1.67%.
With `CN(C)c1cccc(C(=O)NCC2(N(C)C)CCCCC2)c1` the activity, negative = inhibition was inactive: -0.422%.
For `COc1cccc(C(=O)NCC2(N3CCCCC3)CCCCC2)c1`, the activity, negative = inhibition was inactive: -5.28%.
`Cc1ccccc1C(=O)NCC1(N2CCCCC2)CCCCC1` was tested, and the activity, negative = inhibition was inactive: -4.33%.
With `CN(C)C1CCCC1OC(=O)C(O)(c1ccccc1)c1ccccc1` (stereo not given) the activity, negative = inhibition was inactive: 10.5%.
For `C=CCN1CCN(CCOC(=O)C(O)(c2ccccc2)c2ccccc2)CC1`, the activity, negative = inhibition was inactive: -8.1%.
In the case of `CCN1CCCC(OC(=O)C2(O)c3ccccc3C=Cc3ccccc32)C1` (stereo not given), the activity, negative = inhibition is reported as inactive: -2.85%.
In the case of `CC(C)N1C(=O)CC2(CCN(CCOC(=O)C(O)(c3ccccc3)c3ccccc3)CC2)C1=O`, the activity, negative = inhibition is reported as inactive: 8.19%.
In the case of `CCN(CC)CC(C)C(C)OC(=O)C(O)(c1ccccc1)c1ccccc1` (stereo not given), the activity, negative = inhibition is reported as inactive: 3.04%.
